Assay outcomes as filed in PubChem BioAssay.
An excerpt weighted towards active compounds, which were near 0.94% of everything screened.
Yeast UUG start – modulators of start codon recognition fidelity in yeast; S. cerevisiae UUG-firefly luciferase reporter, luminescence/redox ratio; AID 602363; 350,000 tested, 0.13% active; activity score, % at 18.7 µM;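 active = replicate mean at a twofold rise or more, about +100% in these data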;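 also: firefly luciferase made from a UUG start codon reports start codon fidelity; reporter light over untreated wells divided by growth signal over untreated wells; some hits fall short of that in this replicate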
p-CIP stab down – p/CIP protein destabilization | Q05BA5 | F442A p/CIP-EGFP cells, EGFP fluorescence, 16 h | decrease of EGFP signal, % at 10 µM | 0.01% of 290,000 active | AID 1984;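 active = EGFP signal decrease of at least 30% at 10 µM or well 3 SD below plate mean, unless failing retest; inactive = the rest, including hits failing retest or dose response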
ABCB6 inh 2 – human ABCB6 transporter inhibition. Q9NP58. K562-ABCB6 porphyrin accumulation, flow cytometry, 1 h; stronger effect = lower value. fluorescence ratio to DMSO, % at 10 µM. 0.19% of 360,000 active. AID 602162;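 active = fluorescence ratio to DMSO below 75%, the collection mean minus 3 SD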;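 also: signal is porphyrin accumulated inside mitochondria; 100% equals median channel fluorescence of DMSO control wells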
Exocytosis inh – lytic granule exocytosis inhibition; TALL-104 LAMP-1 surface exposure, flow cytometry; cells stimulated with thapsigargin and PMA; inhibition, % at 10 µM; 0.66% of 360,000 active; AID 651702;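 active = inhibition above about 55%, limit read from the data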
PKA-R2B activ – activates the human PKA-R2B holoenzyme complex; P22694+P31323; PKA-R2B holoenzyme dissociation, Cy5-IP20 fluorescence polarization; R2B truncated from residue 108, S112A mutant; 0% DMSO only, 100% 113 µM cGMP; activation, % at 11.4 µM; 0.079% of 340,000 active;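 active = activation above a cutoff set at the mean over all compounds plus 3 SD, cut at about 18% in these data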;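 also: higher means more holoenzyme dissociation and a rise in polarization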
PKA-R1A act – PKA-R1A complex activation | P00514+P68181 | PKA-R1A dissociation, Cy5-IP20 fluorescence polarization; scaled: DMSO 0%, 113 µM cGMP 100% | activation, % at 11.4 µM | 0.083% of 340,000 active;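 active = percent activation above the mean of all tested compounds plus 3 SD, cut at about 19% in these data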;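 also: higher means more PKAc released from R1A so a rise in polarization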
* marks the source's active call; other numbers are inactive results; i = inactive; . = no result.

nr	SMILES	Yeast UUG start	PKA-R2B activ	Exocytosis inh	ABCB6 inh 2	p-CIP stab down	PKA-R1A act
1	O=C(C1CCCC1)N1CCCCN2[C@H](CO)[C@@H](c3ccc(-c4cccc(F)c4)cc3)[C@@H]2C1	9	.	.	.	.	.
2	C[C@H](CO)N1C[C@H](C)[C@@H](CN(C)C(=O)Nc2ccc(F)cc2)Oc2ccc(NS(=O)(=O)c3ccccc3)cc2CC1=O	16	.	.	.	.	.
3	Cc1noc(C)c1NC(=O)N(C)C[C@@H]1OCCCC[C@H](C)Oc2ccc(NC(=O)Nc3ccc(F)cc3)cc2C(=O)N([C@@H](C)CO)C[C@H]1C	6	.	.	.	.	.
4	Clc1ccc(OCCOCCN2CCCCC2)c(Br)c1	-15	7	-2	92	5	19*
5	CC1CCN(CCOCCOc2ccc(Cl)cc2Br)CC1	-18	-15	0	96	2	-2
6	CCOC(=O)C1CCN(c2nc3c(C)cccn3c(=O)c2/C=C(\C#N)S(=O)(=O)c2ccccc2)CC1	.	-4	84*	99	0	1
7	Cc1cccn2c(=O)c(/C=C(\C#N)S(=O)(=O)c3ccccc3)c(N3CCCCC3)nc12	-12	.	-2	109	-12	.
8	COc1ccc(NC(=O)N(C)C[C@@H]2Oc3ccc(NC(=O)CCCCCC(=O)Nc4ccccc4N)cc3CC(=O)N([C@H](C)CO)C[C@H]2C)cc1	-1	.	.	.	.	.

Further structures
nr	SMILES	Yeast UUG start	PKA-R2B activ	Exocytosis inh	ABCB6 inh 2	p-CIP stab down	PKA-R1A act
9	O=C(NNc1c2ccccc2nc2ccccc12)c1ccc(O)cc1O	1	6	2	103	-12	-3
10	O=C(NNc1c2ccccc2nc2ccccc12)c1ccccc1O	-9	6	108*	94	3	-5
11	COC(=O)C1=C(C)NC(C)=C(C(=O)OCC(C)C)C1c1ccccc1[N+](=O)[O-] (stereo not drawn)	15	10	68*	98	.	1
12	NC(N)=N/N=C(\N=Nc1ccccc1)c1cccc2cccnc12	.	3	-1	99	.	5
13	NC(N)=N/N=C(\N=Nc1ccccc1)c1ccc(Cl)cc1	.	5	56*	99	.	-5
14	CC(C)N1CCc2c(sc(NC(=O)c3nc4ccccc4s3)c2C(N)=O)C1	.	10	13	116	-63	4
15	CC(C)N1CCc2c(sc(NC(=O)c3cc(-c4cccs4)nc4ccccc34)c2C(N)=O)C1	-17	4	76*	111	-31	8
16	C[C@H](CO)N1C[C@H](C)[C@@H](CN(C)S(=O)(=O)c2ccccc2)Oc2ccc(NC(=O)CCN3CCOCC3)cc2CC1=O	-1	.	.	.	.	.

(next part)
nr	SMILES	Yeast UUG start	PKA-R2B activ	Exocytosis inh	ABCB6 inh 2	p-CIP stab down	PKA-R1A act
17	C[C@@H]1CCCCO[C@@H](CN(C)Cc2ccc3c(c2)OCO3)[C@H](C)CN([C@@H](C)CO)C(=O)c2cc(NC(=O)Nc3cccc4ccccc34)ccc2O1	-7	.	.	.	.	.
18	CN1/C(=C\C=C2/C(=O)Oc3ccccc3C2=O)C(C)(C)c2ccccc21	.	.	.	.	-352	.
19	CN1C(=CC=C2C=C(I)C(=O)C(I)=C2)C(C)(C)c2ccccc21	-8	6	89*	171	-44	1
20	CCOC(=O)C1=C(O)c2ccccc2C(=O)/C1=C\c1ccc(C)cc1	-11	1	97*	i	-20	-11
21	O=C1C2C3C=CC(C3=C3CCCCC3)C2C(=O)N1c1ccccc1 (stereo not drawn)	-11	-8	80*	103	3	2
22	Cc1ccc(S(=O)(=O)Nc2ccc3c(c2)C(=O)N([C@H](C)CO)C[C@@H](C)[C@@H](CN(C)C(=O)NC2CCCCC2)OCCCC[C@H](C)O3)cc1	6	.	.	.	.	.
23	COc1ccc2c(c1)-c1c(sn(-c3ccc(OC)c(OC)c3)c1=S)C(C)(C)N2	-5	-7	66*	97	-9	-4
24	COc1ccc(-n2sc3c(c2=S)-c2cc(OC)ccc2NC3(C)C)cc1	-10	4	-1	99	-9	-5

Next part
nr	SMILES	Yeast UUG start	PKA-R2B activ	Exocytosis inh	ABCB6 inh 2	p-CIP stab down	PKA-R1A act
25	Cc1ccc(S(=O)(=O)NCCN=C(CN2CCCC2)NS(=O)(=O)c2ccc(C)cc2)cc1	-2	-14	-4	66*	-5	4
26	O=[N+]([O-])c1ncccc1OCc1ccc(-c2ccccc2)cc1	-8	-14	86*	115	-11	1
27	O=C(Oc1ccccc1/C=C\C(=O)c1cc2ccccc2o1)c1ccccc1	.	-10	61*	100	-11	5
28	C[C@@H](O)C#Cc1cnc2c(c1)C(=O)N([C@@H](C)CO)C[C@H](C)[C@H](CN(C)CC1CC1)O2	-4	.	.	.	.	.
29	N#CCC(=O)N/N=C/c1c(-c2ccccc2)n(-c2ccccc2)c2ccccc12	0	-7	94*	99	-1	2
30	CCCCOP(=O)(OCCCC)C1(NS(=O)(=O)c2ccccc2)C=CC(=O)c2ccccc21 (stereo not drawn)	2	10	99*	109	7	-5
31	CN(C)/N=C/C=C1\CCC/C(=C\c2ccc(F)c(F)c2)C1=O	.	.	90*	102	-6	.
32	COc1ccc(/C=C2\CCC/C(=C\C=N\N(C)C)C2=O)cc1	.	0	37	98	-3	-6

Profiles, looked up by structure. Order of values: Yeast UUG start | PKA-R2B activ | Exocytosis inh | ABCB6 inh 2 | p-CIP stab down | PKA-R1A act
`C[C@@H](O)C#Cc1cnc2c(c1)C(=O)N([C@@H](C)CO)C[C@H](C)[C@H](CN(C)CC1CC1)O2` in the list: -4 | . | . | . | . | .
`C[C@H](CO)N1C[C@H](C)[C@@H](CN(C)S(=O)(=O)c2ccccc2)Oc2ccc(NC(=O)CCN3CCOCC3)cc2CC1=O` in the list: -1 | . | . | . | . | .

In the list so far, 2 contain bromine:
nr	SMILES	Yeast UUG start	PKA-R2B activ	Exocytosis inh	ABCB6 inh 2	p-CIP stab down	PKA-R1A act
4	Clc1ccc(OCCOCCN2CCCCC2)c(Br)c1	-15	7	-2	92	5	19*
5	CC1CCN(CCOCCOc2ccc(Cl)cc2Br)CC1	-18	-15	0	96	2	-2

(continued)
nr	SMILES	Yeast UUG start	PKA-R2B activ	Exocytosis inh	ABCB6 inh 2	p-CIP stab down	PKA-R1A act
33	CC(=O)C(=Nc1ccccc1Cl)NNc1ccc(Cl)cc1	-25	14	89*	96	15	1
34	Cc1[nH]c2ccccc2c1/C=N/Nc1nc2ccccc2[nH]1	-17	.	72*	98	-31	.
35	Cc1ccccc1/C=N/Nc1nc2ccccc2[nH]1	.	-4	-1	86	4	-2
36	CO[C@H]1CN(C)C(=O)c2cc(NS(=O)(=O)c3ccc(C)cc3)ccc2OC[C@@H](C)N(C)C[C@@H]1C	12	.	.	.	.	.
37	CCOc1cc(/C=C(\C#N)C(=O)Nc2ccccc2C(=O)O)ccc1OC(=O)c1ccc(C)cc1	-20	-4	6	97	-10	-4
38	CCOc1cc(/C=C(\C#N)C(=O)Nc2ccccc2[N+](=O)[O-])ccc1OCc1cccc2ccccc12	.	.	.	.	30*	.
39	CCCCCCCCCC[n+]1cccc2c3ccccc3ccc21	.	-11	70*	97	5	-2
40	CC1=C(C(=O)OCC(C)C)C(c2cccc(F)c2)N2C(=O)C(C)SC2=N1 (stereo not drawn)	15	4	59*	95	3	-2
41	CCOC(=O)C1=C(C)N=C2SC(C)C(=O)N2C1c1cccc(F)c1 (stereo not drawn)	4	-12	1	93	-1	2
42	Cc1noc(C)c1NC(=O)N[C@H]1C=C[C@H](CC(=O)Nc2ccccc2)O[C@H]1CO	3	.	.	.	.	.
43	CCOC(=O)c1c(NC(C)=O)sc2c1CCC(C=O)=C2Sc1ccccc1	-11	-5	95*	145	-4	8
